Each compound was assayed against JAK2 JH1 (Homo sapiens, UniProt O60674) (assay: JAK kinase domain activity, ADP-Glo kinase assay, JAK2). Conditions: read-out: JAK2 JH1 IC50, substrate IGF1R peptide, top concentration 10000 nM.
Description: (§1) Experimental Example 2: JAK Kinase Domain Activity Analysis
(§2) Kinase domain activity of the JAK family was analyzed using the ADP-Glo kinase assay kit (Promega). The evaluation of the compound was performed according to the manufacturer's protocol, and the method thereof is as follows:
(§3) A 10 mM test compound was diluted to 0.5 mM using DMSO in a 96-well plate, and then 5-fold serial dilutions were performed in DMSO. The diluted compound was diluted to 1/10 with 1x reaction buffer (composition) to prepare a 5x compound solution. 5 uL of the 5x compound solution was mixed with a substrate prepared in the reaction buffer (40 mM Tris, 20 mM MgCl2 and 0.1 mg/ml BSA, 0.05 mM DTT, pH 7.5), and an ATP mixture (10 uL). Next, an enzyme reaction was initiated by adding the JAK family enzyme (10 uL) prepared in the reaction buffer. A short rotation was performed to settle all the solution to the bottom of the plate. The final concentrations of the test compounds in the reaction mixture were 10000, 2000, 400, 80, 16, and 3.2 nM. The concentrations of the control compounds (Brepocitinib or Tofacitinib) were 10 times lower. The enzyme reaction was performed at 25°C for 1 hour. 25 uL of ADP-Glo reagent was added and the reaction was performed at 25 °C for 1 hour. The reaction mixed 50 uL of kinase detection reagent and was stopped, and a luminescence signal was measured using Synergy neo (BioTek Instruments, Inc.). […]

By UniProt entry, the sequences of proteins in these tests, tags left out. Residues count along the entry.
UniProt O60674, 849-1124 limits assumed: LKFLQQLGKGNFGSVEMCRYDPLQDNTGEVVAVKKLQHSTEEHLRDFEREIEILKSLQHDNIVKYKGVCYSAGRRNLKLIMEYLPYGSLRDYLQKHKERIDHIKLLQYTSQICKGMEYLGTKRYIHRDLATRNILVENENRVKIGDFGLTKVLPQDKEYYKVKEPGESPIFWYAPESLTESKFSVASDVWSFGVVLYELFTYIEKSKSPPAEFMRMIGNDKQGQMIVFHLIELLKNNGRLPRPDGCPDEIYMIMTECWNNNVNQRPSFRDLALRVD
UniProt P29597, 589-875 limits assumed: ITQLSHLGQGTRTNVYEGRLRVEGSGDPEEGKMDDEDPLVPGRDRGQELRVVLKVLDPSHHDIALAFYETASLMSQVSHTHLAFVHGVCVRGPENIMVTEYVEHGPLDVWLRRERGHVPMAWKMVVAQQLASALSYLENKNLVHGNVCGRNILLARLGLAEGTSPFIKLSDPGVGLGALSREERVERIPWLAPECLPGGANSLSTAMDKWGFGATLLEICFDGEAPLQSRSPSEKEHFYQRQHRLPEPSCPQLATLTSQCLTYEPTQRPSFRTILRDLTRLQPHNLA
UniProt P29597, whole entry: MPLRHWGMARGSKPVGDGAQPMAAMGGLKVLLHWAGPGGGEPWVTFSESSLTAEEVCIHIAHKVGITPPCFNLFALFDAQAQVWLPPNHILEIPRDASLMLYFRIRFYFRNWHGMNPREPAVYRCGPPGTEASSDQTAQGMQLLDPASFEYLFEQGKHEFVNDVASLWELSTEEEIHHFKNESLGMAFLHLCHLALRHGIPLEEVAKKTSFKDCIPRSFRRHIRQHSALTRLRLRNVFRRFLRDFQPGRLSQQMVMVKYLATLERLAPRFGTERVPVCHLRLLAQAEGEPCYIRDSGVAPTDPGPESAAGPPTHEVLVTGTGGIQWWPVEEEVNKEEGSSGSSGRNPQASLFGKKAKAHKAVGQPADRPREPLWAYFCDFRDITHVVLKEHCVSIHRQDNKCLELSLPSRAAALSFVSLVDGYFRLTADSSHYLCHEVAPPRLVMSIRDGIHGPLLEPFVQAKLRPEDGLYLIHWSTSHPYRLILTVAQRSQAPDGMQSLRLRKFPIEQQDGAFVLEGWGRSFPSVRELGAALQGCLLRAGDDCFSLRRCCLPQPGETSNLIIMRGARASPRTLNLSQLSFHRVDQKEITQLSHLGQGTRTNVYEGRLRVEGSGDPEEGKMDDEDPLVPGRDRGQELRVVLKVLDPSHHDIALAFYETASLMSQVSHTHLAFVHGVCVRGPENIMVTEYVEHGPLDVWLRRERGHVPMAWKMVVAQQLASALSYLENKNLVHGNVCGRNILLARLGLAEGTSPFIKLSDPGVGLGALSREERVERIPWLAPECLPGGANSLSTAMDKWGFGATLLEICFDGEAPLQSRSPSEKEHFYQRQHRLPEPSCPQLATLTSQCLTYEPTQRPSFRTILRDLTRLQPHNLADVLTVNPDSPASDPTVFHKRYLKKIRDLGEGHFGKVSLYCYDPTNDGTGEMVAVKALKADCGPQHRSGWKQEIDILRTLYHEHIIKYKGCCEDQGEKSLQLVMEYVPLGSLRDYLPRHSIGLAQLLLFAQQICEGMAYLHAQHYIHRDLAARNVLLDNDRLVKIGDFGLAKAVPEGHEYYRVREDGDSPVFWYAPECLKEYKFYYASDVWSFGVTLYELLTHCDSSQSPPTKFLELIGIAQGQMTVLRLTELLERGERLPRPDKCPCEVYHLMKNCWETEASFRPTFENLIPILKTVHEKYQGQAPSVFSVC
UniProt P29597, 897-1176 limits assumed: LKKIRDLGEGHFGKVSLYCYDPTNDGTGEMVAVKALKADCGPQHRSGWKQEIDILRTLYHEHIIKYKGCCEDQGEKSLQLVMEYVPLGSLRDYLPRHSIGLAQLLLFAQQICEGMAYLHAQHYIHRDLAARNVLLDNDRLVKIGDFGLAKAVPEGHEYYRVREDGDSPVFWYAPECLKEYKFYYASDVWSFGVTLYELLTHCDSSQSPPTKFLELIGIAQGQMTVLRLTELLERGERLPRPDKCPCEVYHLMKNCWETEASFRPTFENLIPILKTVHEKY
UniProt P23458, whole entry partner: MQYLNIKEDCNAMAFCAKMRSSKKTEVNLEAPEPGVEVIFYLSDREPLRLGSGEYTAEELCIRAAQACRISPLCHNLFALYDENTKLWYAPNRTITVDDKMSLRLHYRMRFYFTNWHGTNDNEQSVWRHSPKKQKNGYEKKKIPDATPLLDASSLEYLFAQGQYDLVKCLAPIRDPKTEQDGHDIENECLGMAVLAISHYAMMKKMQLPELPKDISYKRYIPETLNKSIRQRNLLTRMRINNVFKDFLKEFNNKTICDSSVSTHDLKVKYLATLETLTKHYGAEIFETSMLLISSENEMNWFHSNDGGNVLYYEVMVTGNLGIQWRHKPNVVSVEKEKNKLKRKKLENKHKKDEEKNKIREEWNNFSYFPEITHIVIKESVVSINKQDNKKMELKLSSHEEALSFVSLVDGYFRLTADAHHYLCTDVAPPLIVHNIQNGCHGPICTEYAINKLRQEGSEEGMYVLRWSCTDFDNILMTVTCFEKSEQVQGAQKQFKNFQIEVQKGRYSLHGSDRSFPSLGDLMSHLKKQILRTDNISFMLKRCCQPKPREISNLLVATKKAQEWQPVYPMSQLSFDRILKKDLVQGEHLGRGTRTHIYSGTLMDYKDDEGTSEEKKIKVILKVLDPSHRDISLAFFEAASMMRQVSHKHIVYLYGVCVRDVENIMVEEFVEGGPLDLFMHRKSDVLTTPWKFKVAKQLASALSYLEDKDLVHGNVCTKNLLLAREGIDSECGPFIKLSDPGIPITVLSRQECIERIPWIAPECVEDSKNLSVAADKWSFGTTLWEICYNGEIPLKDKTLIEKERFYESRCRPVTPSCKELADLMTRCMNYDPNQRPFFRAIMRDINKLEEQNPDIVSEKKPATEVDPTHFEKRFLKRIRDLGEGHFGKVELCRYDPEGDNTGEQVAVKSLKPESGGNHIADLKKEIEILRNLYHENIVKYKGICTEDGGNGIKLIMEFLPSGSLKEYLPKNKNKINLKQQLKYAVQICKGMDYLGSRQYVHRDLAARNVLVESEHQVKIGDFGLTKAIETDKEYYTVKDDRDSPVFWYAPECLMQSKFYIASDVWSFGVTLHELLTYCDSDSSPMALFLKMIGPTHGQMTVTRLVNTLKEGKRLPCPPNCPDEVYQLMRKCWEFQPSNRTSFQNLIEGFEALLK
UniProt P23458, 875-1153 limits assumed: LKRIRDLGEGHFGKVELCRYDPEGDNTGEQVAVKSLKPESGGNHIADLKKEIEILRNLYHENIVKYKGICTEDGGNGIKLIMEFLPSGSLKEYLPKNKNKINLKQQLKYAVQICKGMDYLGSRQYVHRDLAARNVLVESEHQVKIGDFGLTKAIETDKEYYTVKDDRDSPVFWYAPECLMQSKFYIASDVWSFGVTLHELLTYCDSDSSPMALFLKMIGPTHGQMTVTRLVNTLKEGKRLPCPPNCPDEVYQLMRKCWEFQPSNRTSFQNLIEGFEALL
UniProt P52333, 822-1111 limits assumed: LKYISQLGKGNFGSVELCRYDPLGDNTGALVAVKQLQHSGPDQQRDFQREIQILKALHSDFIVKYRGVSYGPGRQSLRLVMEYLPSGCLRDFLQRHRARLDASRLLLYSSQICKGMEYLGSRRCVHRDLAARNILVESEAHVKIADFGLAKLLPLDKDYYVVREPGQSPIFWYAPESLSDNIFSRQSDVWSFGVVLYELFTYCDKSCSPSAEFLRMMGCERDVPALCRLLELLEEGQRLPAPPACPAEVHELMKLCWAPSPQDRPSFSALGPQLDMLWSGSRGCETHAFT

| SMILES | IC50 [nM] |
| --- | --- |
| COC1CN(c2cc(-c3cn(C4CC4)c4cnc(NC(C)=O)cc34)nn([C@@H](C)C(F)(F)F)c2=O)C1 | > 10000 |
| CCn1cc(-c2cc(OCC(F)F)c(=O)n([C@@H](C)C(F)(F)F)n2)c2cc(NC(C)=O)ncc21 | > 10000 |
| CC(=O)Nc1cc2c(-c3cc(OCC(C)(F)F)c(=O)n([C@@H](C)C(F)(F)F)n3)cn(C(C)C)c2cn1 | > 10000 |
| COC1CN(c2cc(-c3cn(CCC(F)(F)F)c4cnc(NC(C)=O)cc34)nn([C@@H](C)C(F)(F)F)c2=O)C1 | > 10000 |
| COC1CN(c2cc(-c3cn(CC4CC(F)(F)C4)c4cnc(NC(C)=O)cc34)nn([C@@H](C)C(F)(F)F)c2=O)C1 | > 10000 |
| CC(=O)Nc1cc2c(-c3cc(OCC(C)(F)F)c(=O)n([C@@H](C)C(F)(F)F)n3)cn(CC3CC3)c2cn1 | > 10000 |
| CCOc1cc(-c2cn(C3CC(C#N)C3)c3cnc(NC(C)=O)cc23)nn(C2(C)CCOC2)c1=O (stereo not shown) | 1820 |

The compounds below were run against TYK2 JH1 (Homo sapiens, UniProt P29597) (assay: JAK kinase domain activity, ADP-Glo kinase assay, TYK2). Conditions: read-out: TYK2 JH1 IC50, substrate IRS1 (Y608) peptide, top concentration 10000 nM.
Description: as §1, §2, §3

| SMILES | IC50 [nM] |
| --- | --- |
| COC1CN(c2cc(-c3cn(C4CC4)c4cnc(NC(C)=O)cc34)nn([C@@H](C)C(F)(F)F)c2=O)C1 | > 10000 |
| CCn1cc(-c2cc(OCC(F)F)c(=O)n([C@@H](C)C(F)(F)F)n2)c2cc(NC(C)=O)ncc21 | > 10000 |
| CC(=O)Nc1cc2c(-c3cc(OCC(C)(F)F)c(=O)n([C@@H](C)C(F)(F)F)n3)cn(C(C)C)c2cn1 | > 10000 |
| CC(=O)Nc1cc2c(-c3cc(OCC(C)(F)F)c(=O)n([C@@H](C)C(F)(F)F)n3)cn(CC3CC3)c2cn1 | > 10000 |
| CCOc1cc(-c2cn(C3CC(C#N)C3)c3cnc(NC(C)=O)cc23)nn(C2(C)CCOC2)c1=O (stereo not shown) | > 10000 |

The compounds below were run against JAK1 JH1 (Homo sapiens, UniProt P23458) (assay: JAK kinase domain activity, ADP-Glo kinase assay, JAK1). Conditions: read-out: JAK1 JH1 IC50, substrate IRS1 (Y608) peptide, top concentration 10000 nM.
Description: as §1, §2, §3

| SMILES | IC50 [nM] |
| --- | --- |
| COC1CN(c2cc(-c3cn(C4CC4)c4cnc(NC(C)=O)cc34)nn([C@@H](C)C(F)(F)F)c2=O)C1 | > 10000 |
| CCn1cc(-c2cc(OCC(F)F)c(=O)n([C@@H](C)C(F)(F)F)n2)c2cc(NC(C)=O)ncc21 | > 10000 |
| CC(=O)Nc1cc2c(-c3cc(OCC(C)(F)F)c(=O)n([C@@H](C)C(F)(F)F)n3)cn(C(C)C)c2cn1 | > 10000 |
| CC(=O)Nc1cc2c(-c3cc(OCC(C)(F)F)c(=O)n([C@@H](C)C(F)(F)F)n3)cn(CC3CC3)c2cn1 | > 10000 |
| CCOc1cc(-c2cn(C3CC(C#N)C3)c3cnc(NC(C)=O)cc23)nn(C2(C)CCOC2)c1=O (stereo not shown) | > 10000 |

The compounds below were run against TYK2 pseudokinase domain (Homo sapiens, UniProt P29597) (assay: TYK2 JH2 pseudokinase domain binding affinity, fluorescence polarization (BPS Bioscience inhibitor screening kit)). Conditions: read-out: TYK2 JH2 IC50; polarized fluorescence, 25°C, 1 hour.
Description: Experimental Example 1: Analysis of domain binding affinity to TYK2 pseudokinase
In order analyze the binding affinity of a test compound to the TYK2 pseudokinase domain, a polarized fluorescence-based TYK2 JH2 Pseudokinase Domain Inhibitor Screening Assay Kit (BPS bioscience) was used. The evaluation of the compound was performed according to the manufacturer's protocol, and the method thereof is as follows:
The test compound or control compound (Deucravacitnib) was serially diluted in DMSO, and then diluted 1/10 with distilled water to prepare 10x compound solution. After mixing the compound solution with Probe 1 prepared with a binding reaction buffer (JH2 binding buffer), a reaction was performed at 25°C for 10 minutes. Next, the reaction was initiated by adding a TYK2 pseudokinase domain enzyme prepared with the binding reaction buffer. The reaction was performed in a black 384-well plate at 25 °C for 1 hour. Polarized fluorescence was measured using Synergy neo (BioTek Instruments, Inc.).

| SMILES | IC50 [nM] |
| --- | --- |
| COC1CN(c2cc(-c3cn(C4CC4)c4cnc(NC(C)=O)cc34)nn([C@@H](C)C(F)(F)F)c2=O)C1 | 35 |
| CCn1cc(-c2cc(OCC(F)F)c(=O)n([C@@H](C)C(F)(F)F)n2)c2cc(NC(C)=O)ncc21 | 23 |
| CC(=O)Nc1cc2c(-c3cc(OCC(C)(F)F)c(=O)n([C@@H](C)C(F)(F)F)n3)cn(C(C)C)c2cn1 | 81 |
| COC1CN(c2cc(-c3cn(CCC(F)(F)F)c4cnc(NC(C)=O)cc34)nn([C@@H](C)C(F)(F)F)c2=O)C1 | 29 |
| COC1CN(c2cc(-c3cn(CC4CC(F)(F)C4)c4cnc(NC(C)=O)cc34)nn([C@@H](C)C(F)(F)F)c2=O)C1 | 21 |
| CC(=O)Nc1cc2c(-c3cc(OCC(C)C)c(=O)n([C@@H](C)C(F)(F)F)n3)cn([C@H]3C[C@@H](C#N)C3)c2cn1 | 59 |
| CC(=O)Nc1cc2c(-c3cc(OCC(C)C)c(=O)n(C4(C)CCCC4)n3)cn(C)c2cn1 | 33 |
| CC(=O)Nc1cc2c(-c3cc(OCC(F)F)c(=O)n([C@@H](C)C(F)(F)F)n3)c[nH]c2cn1 | 40 |
| CC(=O)Nc1cc2c(-c3cc(C)c(=O)n(C4(C)CCOC4)n3)cn(C3CC(C#N)C3)c2cn1 (stereo not shown) | 38 |
| CCn1cc(-c2cc(OCCCF)c(=O)n([C@@H](C)C(F)(F)F)n2)c2cc(NC(C)=O)ncc21 | 41 |
| COCC(C)(C)n1nc(-c2cn(C)c3cnc(NC(C)=O)cc23)ccc1=O | 121 |
| CC(=O)Nc1cc2c(-c3cc(OCC4COC4)c(=O)n(C4(C)CCC4)n3)cn(C)c2cn1 | 26 |
| CO[C@H]1CCN(c2cc(-c3cn(C4CCC4)c4cnc(NC(C)=O)cc34)nn(C3(C)CCC3)c2=O)C1 | 130 |
| CC(=O)Nc1cc2c(-c3cc(OCC(C)(F)F)c(=O)n([C@@H](C)C(F)(F)F)n3)cn(CCN3CCOCC3)c2cn1 | 68 |
| CC(=O)Nc1cc2c(-c3cc(OCC(C)(F)F)c(=O)n([C@@H](C)C(F)(F)F)n3)cn(CC3CC3)c2cn1 | 54 |
| CCOc1cc(-c2cn(C3CC(C#N)C3)c3cnc(NC(C)=O)cc23)nn(C2(C)CCOC2)c1=O (stereo not shown) | 4 |

Each compound was assayed against JAK3 JH1 (Homo sapiens, UniProt P52333) (assay: JAK kinase domain activity, ADP-Glo kinase assay, JAK3). Conditions: read-out: JAK3 JH1 IC50, substrate Poly (4:1 Glu-Tyr) peptide, top concentration 10000 nM.
Description: as §1, §2, §3

| SMILES | IC50 [nM] |
| --- | --- |
| COC1CN(c2cc(-c3cn(C4CC4)c4cnc(NC(C)=O)cc34)nn([C@@H](C)C(F)(F)F)c2=O)C1 | > 10000 |
| CCn1cc(-c2cc(OCC(F)F)c(=O)n([C@@H](C)C(F)(F)F)n2)c2cc(NC(C)=O)ncc21 | > 10000 |
| CC(=O)Nc1cc2c(-c3cc(OCC(C)(F)F)c(=O)n([C@@H](C)C(F)(F)F)n3)cn(C(C)C)c2cn1 | > 10000 |
| CC(=O)Nc1cc2c(-c3cc(OCC(C)(F)F)c(=O)n([C@@H](C)C(F)(F)F)n3)cn(CC3CC3)c2cn1 | > 10000 |
| CCOc1cc(-c2cn(C3CC(C#N)C3)c3cnc(NC(C)=O)cc23)nn(C2(C)CCOC2)c1=O (stereo not shown) | > 10000 |

The compounds below were run against TYK2/JAK1 (Homo sapiens, UniProt P29597) (assay: TYK2/JAK1 cell activity by IFNα2B stimulation, SEAP reporter in HEK-blue IFNα/β cells). Conditions: HEK-blue IFNα/β cell line, human IFNα2B 1 U/mL, 24 hours, SEAP absorbance at 630 nm.
Description: Experimental Example 3: Analysis of TYK2/JAKI cell activity by IFNα2B stimulation
An inhibition effect of TYK2/JAK1 activity of the test compound was analyzed using HEK-blue IFNα/β cell line (InvivoGen) that secretes SEAP (Secreted embryonic alkaline phosphatase) depending on the degree of cell stimulation. Cell culture and evaluation were performed according to the manufacturer's recommendations, and the method thereof is as follows: Cells cultured in a growth medium (Dulbecco's Modified Eagle Medium, 10% Fetal bovine serum, 1% Penicillin-Streptomycin, 100 ug/mL Normocin, 10 mg/mL Blasticidin, […] Zeocin) were collected and resuspended in a test medium (DMEM, 10% FBS, 1% Penicillin-Streptomycin), and 3.5x10^4 cells (160 uL) were dispensed into each well of a 96-well plate. After culturing for 24 hours in a 37°C CO2 incubator, 20 uL of a test compound or control compound (Deucravacitinib) diluted in the test medium was added, and then incubated at 37°C for 1 hour and 30 minutes. Next, 20 uL of human IFNα2B recombinant protein (PBL assay science) prepared with the test medium was added to each well (final concentration 1 U/mL) and then incubated at 37°C for 24 hours. 20 uL and 180 uL of cell supernatant were mixed with a QUANTI-blue reagent (InvivoGen) and then reacted at 37°C for 20-30 minutes. An absorbance at 630 nm was measured using Synergy neo (BioTek Instruments, Inc.). […] [Table 3] Result of TYK2/JAK1 cell activity by IFNα2B stimulation test

| SMILES | IC50 [nM] |
| --- | --- |
| COC1CN(c2cc(-c3cn(C4CC4)c4cnc(NC(C)=O)cc34)nn([C@@H](C)C(F)(F)F)c2=O)C1 | < 50 |
| CCn1cc(-c2cc(OCC(F)F)c(=O)n([C@@H](C)C(F)(F)F)n2)c2cc(NC(C)=O)ncc21 | < 50 |
| CC(=O)Nc1cc2c(-c3cc(OCC(C)(F)F)c(=O)n([C@@H](C)C(F)(F)F)n3)cn(C(C)C)c2cn1 | < 50 |
| COC1CN(c2cc(-c3cn(CCC(F)(F)F)c4cnc(NC(C)=O)cc34)nn([C@@H](C)C(F)(F)F)c2=O)C1 | < 50 |
| COC1CN(c2cc(-c3cn(CC4CC(F)(F)C4)c4cnc(NC(C)=O)cc34)nn([C@@H](C)C(F)(F)F)c2=O)C1 | < 50 |
| CC(=O)Nc1cc2c(-c3cc(OCC(C)C)c(=O)n([C@@H](C)C(F)(F)F)n3)cn([C@H]3C[C@@H](C#N)C3)c2cn1 | < 50 |
| CC(=O)Nc1cc2c(-c3cc(OCC(C)C)c(=O)n(C4(C)CCCC4)n3)cn(C)c2cn1 | 50 to 500 |
| CC(=O)Nc1cc2c(-c3cc(OCC(F)F)c(=O)n([C@@H](C)C(F)(F)F)n3)c[nH]c2cn1 | > 500 |
| CC(=O)Nc1cc2c(-c3cc(C)c(=O)n(C4(C)CCOC4)n3)cn(C3CC(C#N)C3)c2cn1 (stereo not shown) | < 50 |
| CCn1cc(-c2cc(OCCCF)c(=O)n([C@@H](C)C(F)(F)F)n2)c2cc(NC(C)=O)ncc21 | < 50 |
| COCC(C)(C)n1nc(-c2cn(C)c3cnc(NC(C)=O)cc23)ccc1=O | > 500 |
| CC(=O)Nc1cc2c(-c3cc(OCC4COC4)c(=O)n(C4(C)CCC4)n3)cn(C)c2cn1 | 50 to 500 |
| CO[C@H]1CCN(c2cc(-c3cn(C4CCC4)c4cnc(NC(C)=O)cc34)nn(C3(C)CCC3)c2=O)C1 | < 50 |
| CC(=O)Nc1cc2c(-c3cc(OCC(C)(F)F)c(=O)n([C@@H](C)C(F)(F)F)n3)cn(CCN3CCOCC3)c2cn1 | 50 to 500 |
